Results taken from patent US10500249B2, “Compositions and methods for preventing or treating diseases, conditions, or processes characterized by aberrant fibroblast proliferation and extracellular matrix deposition” (MOERAE MATRIX, INC., priority 2014, dated 2019).

Tests used:
Experiment in all cases: Kinase Profiling Assay
Format in all cases: biochemical
Details in all cases: 100 μM
FGFR2(N549H) (h) = FGFR2(N549H) (h) (Homo sapiens, UniProt P21802, N549H)
Description: (§1) Every kinase activity measurement was conducted in duplicate.
(§2) Specifically, in these assays, a positively charged substrate is phosphorylated with a radiolabeled phosphate group from an ATP if the kinase is not inhibited by an inhibitor peptide. The positively charged substrate then is attracted to a negatively charged filter membrane, quantified with a scintillation counter, and compared to a 100% activity control.
(§3) In addition to determining the IC50 of the compound, the specificity of MK2 inhibitory peptides was assessed by examining activities of all 266 human kinases available for testing in the Millipore kinase profiling service (Table 1).

CLK2 (h) = biological target: T1, CLK2 (h) (Homo sapiens, UniProt P49760)
T1 construct: purchased Millipore
Description: as §1, §2, §3

MRCKα (h) = biological target: T2, MRCKα (h) (Homo sapiens, UniProt Q5VT25)
T2 construct: purchased Millipore
Description: as §1, §2, §3

PAK6 (h) = biological target: T3, PAK6 (h) (Homo sapiens, UniProt Q9NQU5)
T3 construct: purchased Millipore
Description: as §1, §2, §3

MAPK1 (h) = MAPK1 (h) (Homo sapiens, UniProt P27361)
Description: as §1, §2, §3

PAR-1Bα (h) = biological target: T4, PAR-1Bα (h) (Homo sapiens, UniProt Q7KZI7)
T4 construct: purchased Millipore
T4 sequence (Q7KZI7 1-725 isoform Q7KZI7-4): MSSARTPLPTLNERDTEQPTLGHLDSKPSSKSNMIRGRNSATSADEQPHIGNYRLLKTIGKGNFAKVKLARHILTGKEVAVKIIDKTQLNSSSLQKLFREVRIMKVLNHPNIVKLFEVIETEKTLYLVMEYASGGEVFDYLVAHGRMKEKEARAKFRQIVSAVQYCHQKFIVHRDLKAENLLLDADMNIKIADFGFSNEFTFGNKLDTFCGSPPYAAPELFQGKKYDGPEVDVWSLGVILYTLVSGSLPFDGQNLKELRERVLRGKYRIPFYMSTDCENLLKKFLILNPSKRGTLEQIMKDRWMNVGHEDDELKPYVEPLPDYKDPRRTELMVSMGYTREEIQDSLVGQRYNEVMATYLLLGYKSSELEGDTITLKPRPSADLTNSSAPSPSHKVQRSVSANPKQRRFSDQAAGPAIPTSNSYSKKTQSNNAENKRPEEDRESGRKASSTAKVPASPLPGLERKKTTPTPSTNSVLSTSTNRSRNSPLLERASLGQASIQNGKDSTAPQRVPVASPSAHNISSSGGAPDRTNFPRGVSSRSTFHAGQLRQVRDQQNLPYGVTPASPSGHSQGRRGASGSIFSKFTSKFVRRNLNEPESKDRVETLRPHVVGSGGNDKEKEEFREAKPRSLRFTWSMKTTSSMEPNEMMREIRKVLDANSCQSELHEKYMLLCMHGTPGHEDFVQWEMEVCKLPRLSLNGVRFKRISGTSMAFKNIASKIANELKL
Description: as §1, §2, §3

IGF-1R (h) = biological target: T5, IGF-1R (h) (Homo sapiens, UniProt P08069)
T5 construct: purchased Millipore
Description: as §1, §2, §3

Snk (h) = Snk (h) (Homo sapiens, UniProt Q9NYY3)
Description: as §1, §2, §3

TLK2 (h) = TLK2 (h) (Homo sapiens, UniProt Q86UE8)
Description: as §1, §2, §3

cKit(V560G) (h) = biological target: T6, cKit(V560G) (h) (Homo sapiens, UniProt P10721, V560G)
T6 construct: purchased Millipore
Description: as §1, §2, §3

FAK (h) = FAK (h) (Homo sapiens, UniProt Q05397)
Description: as §1, §2, §3

BTK (h) = BTK (h) (Homo sapiens, UniProt Q06187)
Description: as §1, §2, §3

PKCη (h) = PKCη (h) (Homo sapiens, UniProt P24723)
Description: as §1, §2, §3

JAK3 (h) = biological target: T7, JAK3 (h) (Homo sapiens, UniProt P52333)
T7 construct: purchased Millipore
T7 sequence (P52333 1-1124): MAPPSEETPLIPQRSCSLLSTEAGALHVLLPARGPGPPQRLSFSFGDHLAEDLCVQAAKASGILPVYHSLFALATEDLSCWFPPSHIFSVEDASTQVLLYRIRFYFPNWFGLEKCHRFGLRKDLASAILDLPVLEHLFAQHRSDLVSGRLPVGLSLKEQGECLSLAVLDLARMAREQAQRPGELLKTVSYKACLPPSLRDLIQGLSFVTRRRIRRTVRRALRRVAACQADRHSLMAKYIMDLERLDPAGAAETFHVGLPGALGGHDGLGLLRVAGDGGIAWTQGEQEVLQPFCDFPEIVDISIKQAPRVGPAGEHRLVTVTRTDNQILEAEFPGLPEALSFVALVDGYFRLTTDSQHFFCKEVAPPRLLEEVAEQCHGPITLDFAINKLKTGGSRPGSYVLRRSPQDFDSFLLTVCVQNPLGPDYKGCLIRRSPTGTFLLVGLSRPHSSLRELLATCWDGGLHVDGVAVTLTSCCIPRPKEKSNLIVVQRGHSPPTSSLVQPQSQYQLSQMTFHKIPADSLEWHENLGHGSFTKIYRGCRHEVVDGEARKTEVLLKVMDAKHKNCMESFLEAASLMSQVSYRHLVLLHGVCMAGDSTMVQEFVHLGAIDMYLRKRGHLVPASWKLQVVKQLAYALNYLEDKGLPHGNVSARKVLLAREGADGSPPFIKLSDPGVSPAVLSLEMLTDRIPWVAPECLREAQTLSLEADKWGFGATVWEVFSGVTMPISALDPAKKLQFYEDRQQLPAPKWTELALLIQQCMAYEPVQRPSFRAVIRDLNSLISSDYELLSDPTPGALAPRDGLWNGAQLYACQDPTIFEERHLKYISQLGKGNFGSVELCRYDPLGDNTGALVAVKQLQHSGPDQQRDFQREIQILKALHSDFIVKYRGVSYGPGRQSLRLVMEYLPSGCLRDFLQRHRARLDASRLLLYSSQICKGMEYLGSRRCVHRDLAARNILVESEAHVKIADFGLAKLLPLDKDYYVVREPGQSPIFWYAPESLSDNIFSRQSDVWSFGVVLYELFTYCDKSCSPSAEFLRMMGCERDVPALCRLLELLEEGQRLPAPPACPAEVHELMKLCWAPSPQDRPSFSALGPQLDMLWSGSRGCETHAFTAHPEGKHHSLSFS
Description: as §1, §2, §3

Tie2(R849W) (h) = Tie2(R849W) (h) (Homo sapiens, UniProt Q02763, R849W)
Description: as §1, §2, §3

FGFR3 (h) = FGFR3 (h) (Homo sapiens, UniProt P22607)
Description: as §1, §2, §3

GRK5 (h) = biological target: T8, GRK5 (h) (Homo sapiens, UniProt P34947)
T8 construct: purchased Millipore
Description: as §1, §2, §3

PKA (h) = biological target: T9, PKA (h) (Homo sapiens, UniProt P17612)
T9 construct: purchased Millipore
Description: as §1, §2, §3

CK2α2 (h) = biological target: T10, CK2α2 (h) (Homo sapiens, UniProt P19784)
T10 construct: purchased Millipore
Description: as §1, §2, §3

ACK1 (h) = ACK1 (h) (Homo sapiens, UniProt Q07912)
Description: as §1, §2, §3

Plk1 (h) = Plk1 (h) (Homo sapiens, UniProt P53350)
Description: as §1, §2, §3

PDGFRα (D842V) (h) = biological target: T11, PDGFRα (D842V) (h) (Homo sapiens, UniProt P16234, D842V)
T11 construct: purchased Millipore
Description: as §1, §2, §3

c-RAF (h) = biological target: T12, c-RAF (h) (Homo sapiens, UniProt P04049)
T12 construct: purchased Millipore
Description: as §1, §2, §3

CK1γ1 (h) = biological target: T13, CK1γ1 (h) (Homo sapiens, UniProt Q9HCP0)
T13 construct: purchased Millipore
Description: as §1, §2, §3

Met(Y1248H) (h) = Met(Y1248H) (h) (Homo sapiens, UniProt P08581, Y1230H)
Description: as §1, §2, §3

Met(Y1248D) (h) = Met(Y1248D) (h) (Homo sapiens, UniProt P08581, Y1230D)
Description: as §1, §2, §3

For FAKLAARLYRKALARQLGVAA [MMI-0300], the “% activity” value (FGFR2(N549H) (h)) was 116%, the “% activity” value (CLK2 (h)) was 103% and the “% activity” value (MRCKα (h)) was 104%. The “% activity” value (PAK6 (h)) was 104%, the “% activity” value (MAPK1 (h)) was 107% and the “% activity” value (PAR-1Bα (h)) was 113%. For the same sequence, the “% activity” value (IGF-1R (h)) was 119%, the “% activity” value (Snk (h)) was 114% and the “% activity” value (TLK2 (h)) was 114%. The “% activity” value (cKit(V560G) (h)) was 102%, the “% activity” value (FAK (h)) was 111% and the “% activity” value (BTK (h)) was 102%. For the same sequence, the “% activity” value (PKCη (h)) was 103%, the “% activity” value (JAK3 (h)) was 121% and the “% activity” value (Tie2(R849W) (h)) was 117%. For the same sequence, the “% activity” value (FGFR3 (h)) was 102%, the “% activity” value (GRK5 (h)) was 136% and the “% activity” value (PKA (h)) was 119%. The “% activity” value (CK2α2 (h)) was 105%, the “% activity” value (ACK1 (h)) was 104% and the “% activity” value (Plk1 (h)) was 115%. The “% activity” value (PDGFRα (D842V) (h)) was 114%, the “% activity” value (c-RAF (h)) was 107% and the “% activity” value (CK1γ1 (h)) was 111%. For the same sequence, the “% activity” value (Met(Y1248H) (h)) was 117% and the “% activity” value (Met(Y1248D) (h)) was 102%.
